In PubChem BioAssay AID588676 (Johns Hopkins Ion Channel Center, 2011):
This is a selection; strong and weak results do not stand in their true shares. Some structures show a salt or complex split into parts, the way the source records it. Active and inactive are the calls of the source.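 How the source made its calls: active means calcium-response B-score plate-corrected more than 3 library SD below zero, starting fluorescence within 5 deviations, no agonist response on first addition; inactive means the rest.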

Chains of the proteins cited; added tags and fusions are not shown.
UniProt Q96LB2, whole entry: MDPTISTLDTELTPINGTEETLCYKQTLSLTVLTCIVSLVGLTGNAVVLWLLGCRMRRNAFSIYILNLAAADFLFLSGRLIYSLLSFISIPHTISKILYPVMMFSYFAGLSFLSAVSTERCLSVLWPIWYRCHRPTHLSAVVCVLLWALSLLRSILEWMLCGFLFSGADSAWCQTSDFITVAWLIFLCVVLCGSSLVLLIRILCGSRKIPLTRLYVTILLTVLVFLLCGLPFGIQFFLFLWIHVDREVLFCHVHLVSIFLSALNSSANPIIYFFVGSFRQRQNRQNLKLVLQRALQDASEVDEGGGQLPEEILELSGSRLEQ

The compounds below were run against Mas-related G-protein coupled receptor member X1 (Homo sapiens) (UniProt Q96LB2) (assay: antagonists of human MrgX1 receptor, primary screen, HEK293 cells, Fluo-4 calcium flux (AID 588676)). Conditions: Fluo-4, BAM8-22 antagonism, at 10 µM.
In the case of CC1=C2N=C(C=C3N=C(C(C)=C4[N-][C@@](C)([C@@H]5N=C1[C@](C)(CCC(=O)NC[C@@H](C)OP(=O)([O-])O[C@H]1[C@@H](O)[C@@H](n6cnc7cc(C)c(C)cc76)O[C@@H]1CO)[C@H]5CC(N)=O)[C@@](C)(CC(N)=O)[C@@H]4CCC(N)=O)[C@@](C)(CC(N)=O)[C@@H]3CCC(N)=O)C(C)(C)[C@@H]2CCC(N)=O.[C-]#N.[Co+3], the outcome was “inactive”.
For CN(C)C1(CNC(=O)c2ccc(S(C)(=O)=O)cc2)CCCCC1, the outcome was “inactive”.
With O=[N+]([O-])c1cc([N+](=O)[O-])c(Nc2nnnn2CCO)c([N+](=O)[O-])c1 the outcome was “inactive”.
CN1CCCCC1COC(=O)C1(O)c2ccccc2CCc2ccccc21 (configuration not stated) was tested, and the outcome was “inactive”.
With COc1ccccc1OP(C)(=O)Nc1c(C)cccc1C (configuration not stated) the outcome was “inactive”.
For O=P1(Nc2ncccn2)COc2ccccc2OC1, the outcome was “inactive”.
For O=[As](O)(c1cccs1)c1cccs1, the outcome was “inactive”.
With Cc1ccc(OCC(=O)OC2CN3CCC2CC3)cc1 (configuration not stated) the outcome was “inactive”.
In the case of O=P1(Nc2ccc(Br)cn2)COc2ccccc2OC1, the outcome was “inactive”.
CCCOc1ccc(NP(C)(=O)Oc2ccc(Cl)cc2)cc1 (configuration not stated) was tested, and the outcome was “inactive”.
In the case of CP(=O)(Nc1ccc(SC(F)(F)F)cc1)Oc1ccccc1 (configuration not stated), the outcome was “inactive”.
In the case of Nc1cccc([As](=O)(O)c2ccccc2)c1, the outcome was “inactive”.
With CS(=O)(=O)c1cc([N+](=O)[O-])c2no[n+]([O-])c2c1 the outcome was “inactive”.
For O=P(Nc1nccs1)(Oc1ccccc1)Oc1ccccc1, the outcome was “inactive”.
In the case of O=P(Nc1nccs1)(c1ccccc1)c1nc2ccccc2s1 (configuration not stated), the outcome was “inactive”.
With O=C(O)c1cccc(Nc2c([N+](=O)[O-])cc([N+](=O)[O-])cc2[N+](=O)[O-])c1 the outcome was “inactive”.
With CCOP1(=S)c2c(C)nn(CCC#N)c2N=C(c2ccccc2F)N1C (configuration not stated) the outcome was “inactive”.
O=C(O)COc1ccc([As](=O)(O)O)cc1[N+](=O)[O-] was tested, and the outcome was “inactive”.
For Nc1ccccc1[As](=O)(O)c1ccccc1, the outcome was “inactive”.
For NC(=O)Nc1ccc([As](=O)(O)O)cc1, the outcome was “inactive”.
For CC1=NCCc2c1[nH]c1ccccc21.O=[N+]([O-])c1cc([N+](=O)[O-])c(O)c([N+](=O)[O-])c1, the outcome was “inactive”.
For CN(C(=O)Cc1ccc(Cl)c(Cl)c1)[C@H]1CC[C@@]2(CCCO2)C[C@@H]1N1CCCC1, the outcome was “inactive”.
For O=[N+]([O-])c1ccc2c(c1)nnn2O, the outcome was “inactive”.
CN(C)C(=O)c1cc([N+](=O)[O-])cc2c1-c1c(cc([N+](=O)[O-])cc1[N+](=O)[O-])C2=O was tested, and the outcome was “inactive”.
CCOP1(=S)c2c(C)nn(CCC#N)c2N=C(c2ccc(F)cc2)N1C (configuration not stated) was tested, and the outcome was “inactive”.
For CN(C(=O)Cc1ccccc1)[C@@H]1CC[C@]2(CCCO2)C[C@H]1N1CCCC1, the outcome was “inactive”.
With N#CCCN(C(=O)COC(=O)C(O)(c1ccccc1)c1ccccc1)c1ccc(F)cc1 the outcome was “inactive”.
With CS(=O)(=O)c1ccc(Cl)c(NC(=O)COC(=O)C(O)(c2ccccc2)c2ccccc2)c1 the outcome was “inactive”.
For COc1ccccc1OP(C)(=O)Nc1cccc(Br)c1 (configuration not stated), the outcome was “inactive”.
With O=[As](O)(O)c1cccnc1 the outcome was “inactive”.
With COc1cc(C(=O)NCC2(N3CCOCC3)CCCCC2)cc(Cl)c1OC(C)C the outcome was “inactive”.
With O=C(OC1CN2CCC1CC2)c1ccc(Cl)cc1 (configuration not stated) the outcome was “inactive”.
In the case of CCOC(=O)c1ccc(NP(C)(=O)Oc2cc(C)cc(C)c2)cc1 (configuration not stated), the outcome was “inactive”.
For Cc1cc(C)cc(OP(C)(=O)Nc2ccc(C)cc2C)c1 (configuration not stated), the outcome was “inactive”.
Cc1cccc(OCC(=O)OC2CN3CCC2CC3)c1 (configuration not stated) was tested, and the outcome was “inactive”.
In the case of O=[As](O)(c1cccc(O)c1)c1cccc(O)c1, the outcome was “inactive”.
With Cc1ccc(C)c(NP(C)(=O)Oc2ccccc2)c1 (configuration not stated) the outcome was “inactive”.
In the case of CCCOP(=S)(Nc1nc(N)cc(=O)[nH]1)OCCC, the outcome was “inactive”.
With Nc1cccc2c([As](=O)(O)O)cccc12 the outcome was “inactive”.
In the case of Cc1ccc(NCCc2c([N+](=O)[O-])cc([N+](=O)[O-])cc2[N+](=O)[O-])cc1, the outcome was “inactive”.
Cc1cc(C)cc(OP(C)(=O)Nc2ccccn2)c1 (configuration not stated) was tested, and the outcome was “inactive”.
CP(=O)(Nc1cccc(Br)c1)Oc1ccccc1 (configuration not stated) was tested, and the outcome was “inactive”.
CCOP(=O)(Nc1cccc2ccccc12)OCC was tested, and the outcome was “inactive”.
CCOc1ccc(C2=NCC(CBr)S2)cc1 (configuration not stated) was tested, and the outcome was “inactive”.
In the case of O=P1(Nc2nc3ccc(Cl)cc3s2)COc2ccccc2O1 (configuration not stated), the outcome was “inactive”.
In the case of CP(=O)(Nc1ccccc1F)Oc1ccccc1 (configuration not stated), the outcome was “inactive”.
For CC(C)c1ccc(OP(C)(=O)Nc2ccc(SC(F)(F)F)cc2)cc1 (configuration not stated), the outcome was “inactive”.
For CC(C)(C)C(=O)NC(Sc1ccccc1)C(Cl)(Cl)Cl (configuration not stated), the outcome was “inactive”.
For O=C(OC1CN2CCC1CC2)c1ccc([N+](=O)[O-])cc1 (configuration not stated), the outcome was “inactive”.
CC(=O)c1ccc(N2CC2c2ccncc2)cc1 (configuration not stated) was tested, and the outcome was “inactive”.
For C[C@H]1OP(=O)(Oc2ccccc2)C[C@@H]2O[C@@H]21 (some centres not stated), the outcome was “inactive”.
In the case of C[C@@H]1C=CCP(=O)(Oc2ccccc2)O1 (some centres not stated), the outcome was “inactive”.
In the case of O=C(OCCN1CCN(CCOCc2ccccc2)CC1)C(O)(c1ccccc1)c1ccccc1, the outcome was “inactive”.
In the case of CC(=O)Nc1ccc(Oc2c([N+](=O)[O-])cc([N+](=O)[O-])cc2[N+](=O)[O-])cc1, the outcome was “inactive”.
In the case of CC(=O)Nc1ccc([As](=O)(O)O)c(O)c1, the outcome was “inactive”.
For COc1ccc2c(c1O)-c1c(O)c(OC)cc3c1[C@H](C2)[N+](C)(C)CC3.O=[N+]([O-])c1cc([N+](=O)[O-])c([O-])c([N+](=O)[O-])c1[O-], the outcome was “inactive”.
For O=C(NC1CCS(=O)(=O)C1)NP(=S)(Oc1ccccc1)Oc1ccccc1 (configuration not stated), the outcome was “inactive”.
With CCNC(=S)/N=C(\N)N[N+](=O)[O-] the outcome was “inactive”.
CCOC(=O)NC(Sc1ccccc1)C(Cl)(Cl)Cl (configuration not stated) was tested, and the outcome was “inactive”.
In the case of Cc1ccc(NP(=O)(Oc2cccc(C)c2)Oc2cccc(C)c2)nc1, the outcome was “inactive”.
In the case of c1ccc(-c2nn[nH]n2)c(-c2nn[nH]n2)c1, the outcome was “inactive”.
With CCOC(=O)c1ccc(NP(C)(=O)Oc2ccc(F)cc2)cc1 (configuration not stated) the outcome was “inactive”.
COc1ccc(OP(C)(=O)Nc2ccc(SC(F)(F)F)cc2)cc1 (configuration not stated) was tested, and the outcome was “inactive”.
Cc1ccc(OP(=O)(Nc2ccccn2)Oc2ccc(C)cc2)cc1 was tested, and the outcome was “inactive”.
In the case of CC(=O)NC(SC(=S)N(CC(C)C)CC(C)C)C(Cl)(Cl)Cl (configuration not stated), the outcome was “inactive”.
For COC(=O)c1cc2c(s1)N=C(c1ccccc1)N(C)P2(=O)N1CCOCC1 (configuration not stated), the outcome was “inactive”.
With CCC(=O)N1C2C3N(C(=O)CC)C1C1N(C(=O)CC)C(C(N1C(=O)CC)N3C(=O)CC)N2C(=O)CC the outcome was “inactive”.
